Laboratory results from patent publication US20230114808A1, “THERAPEUTIC RNA FOR PROSTATE CANCER” (BioNTech SE, priority 2019, published 2023).

How the values were obtained:
[1] = Biodistribution and clearance of DOTMA by LC/MS after IV RNA(LIP)
[2] = mouse, in vivo, iv

CCCCCCCC/C=C\CCCCCCCCOCC(C[N+](C)(C)C)OCCCCCCCC/C=C\CCCCCCCC (stereo not drawn) [DOTMA, 1,2-di-O-octadecenyl-3-trimethylammonium propane]
DOTMA concentration in all other organs relative to spleen samples ([1]; eight weekly injections): not more than 5%
DOTMA concentration relative to the maximum values ([1]; liver and spleen, within 20 days, single administration): about 50%
time to delivery to the spleen (and other organs) [2]: in less than one hour
